From paper PMC4839537 (Biochemical pharmacology, 2016) come the findings set out here.

Protein sequences, listed by entry. Tags and fused reporters are not part of them.
UniProt P30542, whole entry: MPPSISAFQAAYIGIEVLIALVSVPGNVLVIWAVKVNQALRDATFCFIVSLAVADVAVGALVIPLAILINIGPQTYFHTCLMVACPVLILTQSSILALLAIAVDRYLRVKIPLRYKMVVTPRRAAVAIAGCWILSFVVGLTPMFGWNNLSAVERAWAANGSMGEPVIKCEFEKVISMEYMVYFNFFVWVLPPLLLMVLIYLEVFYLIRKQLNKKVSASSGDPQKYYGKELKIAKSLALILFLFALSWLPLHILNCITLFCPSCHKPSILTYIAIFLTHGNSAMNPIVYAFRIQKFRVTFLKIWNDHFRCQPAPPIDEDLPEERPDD

This assay addresses recombinant human A1AR (Gαi) (Homo sapiens, UniProt P30542). Type of assay: cell-based.

The structures appear in SMILES notation.

Consider `CCNC(=O)[C@H]1O[C@@H](n2cnc3c(N)ncnc32)[C@H](O)[C@@H]1O` [NECA, adenosine-5′-N-ethyluronamide], for which the “Effect of NECA on cAMP accumulation” value is “stimulates cAMP accumulation”.
